# Laboratory results from BindingDB's records for 35016113, “Dual Sigma-1 receptor antagonists and hydrogen sulfide-releasing compounds for pain treatment: Design, synthesis, and pharmacological evaluation” (2022).
# Protein sequences, listed by entry. Tags and fused reporters are not part of them. Lines headed by an entry give the natural chain unless they say otherwise; changes in a name come on top.
# UniProt P41144: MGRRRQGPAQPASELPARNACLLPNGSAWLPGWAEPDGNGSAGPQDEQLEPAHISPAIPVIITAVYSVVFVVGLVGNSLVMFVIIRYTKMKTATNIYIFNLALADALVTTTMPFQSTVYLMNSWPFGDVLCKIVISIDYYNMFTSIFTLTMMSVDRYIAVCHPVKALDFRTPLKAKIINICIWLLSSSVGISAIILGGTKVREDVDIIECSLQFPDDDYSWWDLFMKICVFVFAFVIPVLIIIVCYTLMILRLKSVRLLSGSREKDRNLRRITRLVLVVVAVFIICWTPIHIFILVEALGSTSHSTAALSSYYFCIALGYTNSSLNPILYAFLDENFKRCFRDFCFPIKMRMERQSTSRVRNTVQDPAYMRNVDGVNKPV
# Target: Kappa-type opioid receptor (Cavia porcellus, UniProt P41144)
# Experiment: Displacement of [3H]-U69593 from Dunkin-Hartley guinea pig brain membrane kappa opioid receptor incubated for 30 mins by liquid scintillation counting analysis
structure (smiles),measurement,value
CN(C(=O)Cc1ccc(Cl)c(Cl)c1)[C@@H]1CCCC[C@H]1N1CCCC1,Ki,1.1 nM
